{
  "source": "patent US7737141B2",
  "about": "“Prodrug of cinnamide compound” (Eisai R&D Management Co., Ltd., priority 2006, dated 2010)",
  "assay": "Solubility test: apparent solubility in test solutions, HPLC-UV",
  "format": "physicochemical",
  "procedure": "Several milligram of each compound to be tested was precisely weighed, and 0.1 to 1.3 mL of the following test solutions were each added to the compound. The resulting mixture was stirred for several tens of seconds to several minutes for dispersing or dissolving the compound. Then, the supernatant was collected by centrifugation or filtration through a membrane. The concentration of the compound in the supernatant was quantitatively measured by an HPLC-UV method as an apparent solubility of the compound to each test solution.\npH 5: Diluted Mcllvaine buffer solution (KANTO Chemical Co. Inc.)\npH 7: GIBCO™ Dulbecco's phosphate-buffered saline (Invitrogen Corporation)",
  "data": [
    {"substance": "3-{4-{(S)-4-[(S)-1-(2,6-difluoropyridin-3-yl)ethyl]-6-methyl-3-oxomorpholin-(2Z)-ylidenemethyl}-2-methoxyphenyl}-5-methyl-1-phosphonooxymethyl-3H-imidazol-1-ium chloride [Example 7]", "values": [
      {"measurement": "Solubility at pH 5", "setting": "pH 5: Diluted Mcllvaine buffer solution", "value": ">10", "unit": "mg/mL"},
      {"measurement": "Solubility at pH 7", "setting": "pH 7: Dulbecco's phosphate-buffered saline", "value": ">10", "unit": "mg/mL"}
    ]}
  ]
}
